The values below are quoted from earlier work in paper PMC8210154, “Tumor-selective, antigen-independent delivery of a pH sensitive peptide-topoisomerase inhibitor conjugate suppresses tumor growth without systemic toxicity” (NAR Cancer, 2021).

This series concerns JIMT-1 xenografts. More on the design: method as in PMID 27026201. The conditions noted are these: highest ADC doses; cited from earlier work.

Consider DS-8201, for which the “efficacy in JIMT-1 model” value is reported as “only modest efficacy”.
